PubChem BioAssay AID932 (The Scripps Research Institute Molecular Screening Center, 2007)
This is a selection; strong and weak results do not stand in their true shares. The source made the active and inactive calls.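 The calls were made as follows: active = activation above the screen-wide mean activation plus 3 SD (cut at about 130% in these data); inactive = the rest.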

Assay: STAT1 signaling activators, primary screen, cell-based, HTS, luciferase reporter (AID 932);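 also: raw ratio to IFN-gamma control signal so 100% means no change and 0% no light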
Details: NIH 3T3 STAT1-luciferase reporter, IFN-gamma, luminescence; at 5.5 µM; active compounds read high; 100% = IFN-gamma alone, no compound

Question: With `CN1CCC(Nc2cccc(F)c2)CC1` as the compound, how does the activation (% of control) read?
Answer: inactive: 104%

Question: For `COc1ccc(CN(CCCl)CCCl)cc1Cl`, which activation (% of control) is on record?
Answer: inactive: 89.3%

Question: For `CN(C)c1cccc(C(=O)NCC2(N3CCCCC3)CCCCC2)c1`, which activation (% of control) is on record?
Answer: inactive: 99.1%

Question: For `CC(C)c1ccc(NC2CCN(C(=O)OC(C)(C)C)CC2)cc1`, which activation (% of control) is on record?
Answer: inactive: 120%

Question: With `COc1ccc(NC2CCN(C(=O)OC(C)(C)C)CC2)cc1` as the compound, how does the activation (% of control) read?
Answer: inactive: 108%

Question: With `CN1CCN(CCOC(=O)C(O)(c2ccccc2)c2ccccc2)CC1` as the compound, how does the activation (% of control) read?
Answer: inactive: 103%

Question: With `O=C(NCC1(N2CCOCC2)CCCCC1)c1cc(=O)[nH]c2ccccc12` as the compound, how does the activation (% of control) read?
Answer: inactive: 100%

Question: With `O=C(NCC1(N2CCCCC2)CCCCC1)c1cccc([N+](=O)[O-])c1` as the compound, how does the activation (% of control) read?
Answer: inactive: 98.2%

Question: For `N#CC1(Nc2ccccc2)CCN(CCc2ccccc2)CC1`, which activation (% of control) is on record?
Answer: inactive: 104%

Question: For `COc1ccc(NC2CCN(CCc3ccccc3)CC2)c(OC)c1`, which activation (% of control) is on record?
Answer: inactive: 104%

Question: Which activation (% of control) does the source give for `CCOC(=O)N1CCC(Nc2ccc(OC)cc2)CC1` here?
Answer: inactive: 85.8%

Question: Which activation (% of control) does the source give for `O=C(OC1CN2CCC1CC2)C1c2ccccc2Oc2ccccc21` (stereo not given) here?
Answer: inactive: 112%

Question: With `O=C(NCC1(N2CCOCC2)CCCCC1)c1cc2ccccc2o1` as the compound, how does the activation (% of control) read?
Answer: inactive: 97.6%

Question: With `COc1ccc(C(=O)NCC2(N3CCCCC3)CCCCC2)c(OC)c1OC` as the compound, how does the activation (% of control) read?
Answer: inactive: 97.2%

Question: Which activation (% of control) does the source give for `CCC(CO)(C(=O)OC1CN2CCC1CC2)c1ccccc1` (stereo not given) here?
Answer: inactive: 106%

Question: For `COc1cc(OC)cc(C(=O)NCC2(N3CCOCC3)CCCCC2)c1`, which activation (% of control) is on record?
Answer: inactive: 97.5%

Question: Which activation (% of control) does the source give for `CC(C)(C)OC(=O)N1CCC(Nc2ccccc2)CC1` here?
Answer: inactive: 98.2%

Question: For `CCOc1ncccc1C(=O)NCC1(N2CCOCC2)CCCCC1`, which activation (% of control) is on record?
Answer: inactive: 96.5%

Question: For `CN(C)c1ccc(C(=O)NCC2(N3CCCCC3)CCCCC2)cc1`, which activation (% of control) is on record?
Answer: inactive: 106%

Question: Which activation (% of control) does the source give for `CCN1CCC(Nc2cccc(F)c2)CC1` here?
Answer: inactive: 94.8%

Question: Which activation (% of control) does the source give for `c1ccc(CN2CCC(Nc3ccccc3)CC2)cc1` here?
Answer: inactive: 101%

Question: Which activation (% of control) does the source give for `N#Cc1ccc(C(=O)NCC2(N3CCCCC3)CCCCC2)cc1` here?
Answer: inactive: 106%

Question: With `O=C(OC1CN2CCC1CC2)C1c2ccccc2C=Cc2ccccc21` (stereo not given) as the compound, how does the activation (% of control) read?
Answer: inactive: 94.3%

Question: For `N/C(=N\O)c1c(N)no[n+]1[O-]`, which activation (% of control) is on record?
Answer: inactive: 101%

Question: With `COc1ccc(C(=O)NCC2(N3CCOCC3)CCCCC2)cc1OC` as the compound, how does the activation (% of control) read?
Answer: inactive: 101%
